Ab-14 heavy chain CDR variants: yeast mating affinities

The measurements come from Engelhart et al. 2022 (doi:10.1038/s41597-022-01779-4) through the FLAb antibody collection.

All variants were tested on one target, the spike HR2 peptide PDVDLGDISGINAS (SARS-CoV-2).

Each scFv is VH, a 15-residue (Gly4Ser)3 linker, VL, as in the parent Ab-14, and differs from it in the CDRs of the heavy chain only.
VH: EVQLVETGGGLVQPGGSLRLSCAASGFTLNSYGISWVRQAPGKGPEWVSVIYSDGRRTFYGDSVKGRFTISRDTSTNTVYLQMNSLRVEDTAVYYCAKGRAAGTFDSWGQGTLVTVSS
VL: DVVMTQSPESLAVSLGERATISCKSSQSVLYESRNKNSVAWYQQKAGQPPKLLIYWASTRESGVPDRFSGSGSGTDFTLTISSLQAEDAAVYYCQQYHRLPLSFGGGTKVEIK

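AAYL49 was designed without a model: most single CDR substitutions and a random sample of double and triple ones. The scFvs were displayed on barcoded MATa yeast, the peptide on MATalpha yeast. Binding brings cells together so that they mate, and sequencing counts the barcode pairs among the diploids. Read counts were normalised to the haploid input and turned into Kd by a linear fit to BCL2-family pairs of known affinity, for each replicate. The assay was run in three technical replicates.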

Sequences are complete VH domains. All variants listed here change K65 of the VH, counted from its first residue. The read-out is the apparent dissociation constant on a log10 scale (nM): the lower, the stronger. A mean of the replicates is given; it leaves out those without a signal. "not detected" marks a missing value. The strain was present, yet no cells mated with the target were sequenced in any replicate, which points to weak or no binding.

VH	log10 Kd (nM), mean	replicates with signal
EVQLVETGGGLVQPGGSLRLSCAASGFTLNSYGNSWVRQAPGKGPEWVSVIYSDGRRTFYGDAVTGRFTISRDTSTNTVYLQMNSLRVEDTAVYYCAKGRAAGTFDSWGQGTLVTVSS	not detected	0 of 3
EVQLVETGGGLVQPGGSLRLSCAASGFTLNSYGISWVRQAPGKGPEWVSVIYEDGRRTFYGDSVPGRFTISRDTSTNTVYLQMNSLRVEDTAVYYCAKGRAAGTFDIWGQGTLVTVSS	3.75	2 of 3
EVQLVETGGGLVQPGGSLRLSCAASGFTLNSKGIAWVRQAPGKGPEWVSVIYSDGRRTFYGDSVNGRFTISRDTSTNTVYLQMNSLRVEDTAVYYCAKGRAAGTFDSWGQGTLVTVSS	not detected	0 of 3
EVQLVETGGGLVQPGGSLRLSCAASGFTLNSYGISWVRQAPGKGPEWVSVIYSDGRRTFYGDSRYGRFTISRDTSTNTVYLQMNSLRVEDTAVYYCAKGRAVGTFDSWGQGTLVTVSS	not detected	0 of 3
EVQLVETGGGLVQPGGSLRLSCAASGFTLNSYGISWVRQAPGKGPEWVSVVYSDCRRTFYGDSVVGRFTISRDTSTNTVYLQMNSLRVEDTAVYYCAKGRAAGTFDSWGQGTLVTVSS	3.53	2 of 3
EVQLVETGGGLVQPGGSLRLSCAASGFTLNSYGIWWVRQAPGKGPEWVSVIYSDGRRTFYGDSVLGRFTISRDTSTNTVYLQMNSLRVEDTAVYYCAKGRAAGTFISWGQGTLVTVSS	not detected	0 of 3
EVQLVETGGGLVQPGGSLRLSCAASGFTLNSYGIKWVRQAPGKGPEWVSVIYSDGRRTFYGDSVEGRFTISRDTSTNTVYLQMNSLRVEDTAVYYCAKGRYAGTFDSWGQGTLVTVSS	not detected	0 of 3
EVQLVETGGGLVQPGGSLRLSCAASGFTLNSIGISWVRQAPGKGPEWVSVIYSDGRRTAYGDSVMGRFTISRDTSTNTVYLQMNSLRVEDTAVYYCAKGRAAGTFDSWGQGTLVTVSS	2.14	3 of 3
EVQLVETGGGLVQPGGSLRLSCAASWFTLNSYGISWVRQAPGKGPEWVSVIYSDGRRTFYGDSVDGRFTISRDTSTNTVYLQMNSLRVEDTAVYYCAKGRAKGTFDSWGQGTLVTVSS	not detected	0 of 3
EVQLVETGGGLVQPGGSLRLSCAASGSTLNSYGISWVRQAPGKGPEWVSVIYSDGRLTFYGDSVLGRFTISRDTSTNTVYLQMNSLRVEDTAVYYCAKGRAAGTFDSWGQGTLVTVSS	3.95	1 of 3
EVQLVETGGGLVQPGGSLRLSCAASGFTLNSYGISWVRQAPGKGPEWVSVIPSDGRRTFYGDSVDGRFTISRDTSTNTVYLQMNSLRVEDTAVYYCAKPRAAGTFDSWGQGTLVTVSS	3.63	1 of 3
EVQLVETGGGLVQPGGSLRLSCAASGFTLNSYGISWVRQAPGKGPEWVSVIYSDGRRRFYGDSVIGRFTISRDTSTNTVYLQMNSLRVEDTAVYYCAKGRAAGTFDLWGQGTLVTVSS	1.51	3 of 3
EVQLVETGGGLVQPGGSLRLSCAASGFTLNSYGISWVRQAPGKGPEWVSVIYSDGRRTGYTDSVGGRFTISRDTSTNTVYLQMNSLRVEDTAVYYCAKGRAAGTFDSWGQGTLVTVSS	2.49	3 of 3
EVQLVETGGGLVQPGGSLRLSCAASGFTLNSYGISWVRQAPGKGPEWVSVIHSDGRRTFYGDSVIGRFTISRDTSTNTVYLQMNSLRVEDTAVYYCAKSRAAGTFDSWGQGTLVTVSS	not detected	0 of 3
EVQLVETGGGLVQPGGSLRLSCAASGFPLNSYGISWVRQAPGKGPEWVSVIYSDGRRSFYGDSVMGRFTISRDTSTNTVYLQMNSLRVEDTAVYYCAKGRAAGTFDSWGQGTLVTVSS	1.97	3 of 3

2 of these entries, quoted again:

VH,"log10 Kd (nM), mean",replicates with signal
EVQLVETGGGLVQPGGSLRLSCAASGFTLNSYGNSWVRQAPGKGPEWVSVIYSDGRRTFYGDAVTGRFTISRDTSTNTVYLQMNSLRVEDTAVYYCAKGRAAGTFDSWGQGTLVTVSS,not detected,0 of 3
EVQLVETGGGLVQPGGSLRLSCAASGFTLNSYGISWVRQAPGKGPEWVSVVYSDCRRTFYGDSVVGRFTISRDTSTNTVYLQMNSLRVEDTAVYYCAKGRAAGTFDSWGQGTLVTVSS,3.53,2 of 3

Background: pairings of library AAYL49 with three empty control strains gave a value in 15% of cases (median 4.06, 5th percentile 2.83). Values in that range, when seen in few replicates, are hard to tell from nonspecific mating.